Measured values from patent US20110020925A1, “NEW MODULATING MOLECULES FOR AN IMPROVED REGULATED EXPRESSION SYSTEM” (BAYER SCHERING PHARMA AKTIENGESELLSCHAFT, priority 2007, published 2011).

Tests used:
[1] = molecular target: T1, human Progesterone receptor (Homo sapiens, UniProt P06401); test: Secondary PR assay in T47D cells (PR-induced alkaline phosphatase activity, 200 pM Promegestone); type: cell-based; details: 24 hours
T1 construct: PR-rich human T47D cells were seeded in 96-well plates; endogenous in cells; host or cells: T47D human breast carcinoma cells (ATCC # HTB-133)
T1 sequence (P06401 1-933): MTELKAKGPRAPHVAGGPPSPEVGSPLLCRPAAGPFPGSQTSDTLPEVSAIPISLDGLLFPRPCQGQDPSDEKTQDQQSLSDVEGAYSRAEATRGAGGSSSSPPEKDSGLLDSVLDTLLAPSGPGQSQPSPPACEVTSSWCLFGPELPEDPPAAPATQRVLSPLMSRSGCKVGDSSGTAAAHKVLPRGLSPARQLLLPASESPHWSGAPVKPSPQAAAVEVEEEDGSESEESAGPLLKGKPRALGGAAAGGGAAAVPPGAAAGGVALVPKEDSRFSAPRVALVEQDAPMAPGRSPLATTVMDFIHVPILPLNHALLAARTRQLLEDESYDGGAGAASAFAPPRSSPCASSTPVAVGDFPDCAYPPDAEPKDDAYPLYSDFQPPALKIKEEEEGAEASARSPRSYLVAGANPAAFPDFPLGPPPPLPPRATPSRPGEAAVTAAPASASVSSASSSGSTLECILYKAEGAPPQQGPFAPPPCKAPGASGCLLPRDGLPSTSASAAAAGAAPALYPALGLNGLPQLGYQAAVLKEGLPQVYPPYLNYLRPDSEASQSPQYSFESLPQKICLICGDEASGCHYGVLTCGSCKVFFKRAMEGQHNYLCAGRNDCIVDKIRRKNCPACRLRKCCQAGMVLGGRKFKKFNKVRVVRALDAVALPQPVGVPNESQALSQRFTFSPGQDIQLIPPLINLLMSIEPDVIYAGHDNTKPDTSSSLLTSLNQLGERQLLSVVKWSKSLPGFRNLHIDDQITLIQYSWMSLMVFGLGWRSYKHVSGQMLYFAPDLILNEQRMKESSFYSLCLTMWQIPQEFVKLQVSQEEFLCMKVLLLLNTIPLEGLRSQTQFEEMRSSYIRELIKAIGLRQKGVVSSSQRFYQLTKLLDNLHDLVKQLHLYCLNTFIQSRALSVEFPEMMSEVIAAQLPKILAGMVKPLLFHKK

[2] = mice, rats and monkeys; cited from earlier work
[3] = Pharmacokinetics of bolus recombinant hIFN-β1a protein in mice, serum hIFN-β ELISA

With `CC#C[C@]1(O)CC[C@H]2[C@@H]3CCC4=CC(=O)CCC4=C3[C@@H](c3ccc(N(C)C)cc3)C[C@@]21C` [MFP, 11-(4-dimethylaminophenyl)-17-hydroxy-17c-propynyl-4,9-estradiene-3-one] the “inhibition of PR-dependent AP expression” value [1] was 100%.

In the case of “PEGylated form of IFN-β1a: IFN-β1a with attached 20-kDa polymer of polyethylene glycol (literature)”, the “half-life (t1/2)” value [2] is listed as ~10 h.

In the case of “hIFN-β1a: recombinant human interferon-β 1a protein given as bolus injection”, the “half-life (t1/2)” value [2] is listed as “approximately 1 hours”, the “decrease of hIFN-β1a serum level from maximum by 6 hours” value ([3]; i.m. injection) is listed as “approximately 10 fold” and the “time of maximum hIFN-β1a serum level post-injection” value ([3]; i.m. injection) is listed as 2 h. For the same molecule, the “difference in serum hIFN-β1a level between the high and low dose” value ([3]; i.v. and i.m., 250 ng vs 25 ng) was 10 fold and the “time by which serum hIFN-β1a levels were near the limit of detection” value ([3]; i.v. injection, 25 ng or 250 ng, LOD=12.5 pg/ml) was ≤ 6 h.
